Activity calls are given as the source filed them.
Key:
Format in all cases: functional, organism-based
[1] = biological target: T1, Bile acid receptor (Mus musculus) (UniProt Q60641); experiment: In vivo agonist activity at FXR of western diet/CCl4-induced NASH C57BL/6 mouse model assessed as increase in OST-beta mRNA level in liver at 20 mg/kg/day, IG treated for 4 weeks measured after 8 hrs of fasting post-last dose by RT-PCR analysis
T1 sequence (whole entry): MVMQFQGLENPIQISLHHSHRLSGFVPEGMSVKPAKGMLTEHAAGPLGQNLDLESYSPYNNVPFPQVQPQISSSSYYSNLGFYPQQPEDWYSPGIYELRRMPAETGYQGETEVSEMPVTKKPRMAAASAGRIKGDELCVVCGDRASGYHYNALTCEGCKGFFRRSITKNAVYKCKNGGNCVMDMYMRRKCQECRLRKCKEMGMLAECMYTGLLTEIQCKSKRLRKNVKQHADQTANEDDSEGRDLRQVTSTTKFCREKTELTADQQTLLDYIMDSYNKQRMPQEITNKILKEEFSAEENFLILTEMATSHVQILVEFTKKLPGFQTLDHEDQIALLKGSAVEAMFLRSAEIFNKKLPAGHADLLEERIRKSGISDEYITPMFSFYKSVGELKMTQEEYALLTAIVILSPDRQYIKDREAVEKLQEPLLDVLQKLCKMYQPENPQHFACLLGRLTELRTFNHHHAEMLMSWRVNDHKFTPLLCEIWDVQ

[2] = biological target: T1, Bile acid receptor (Mus musculus); experiment: In vivo agonist activity at FXR of western diet/CCl4-induced NASH C57BL/6 mouse model assessed as increase in BSEP mRNA level in liver at 20 mg/kg/day, IG treated for 4 weeks measured after 8 hrs of fasting post-last dose by RT-PCR analysis
[3] = biological target: T1, Bile acid receptor (Mus musculus); experiment: In vivo agonist activity at FXR of western diet/CCl4-induced NASH C57BL/6 mouse model assessed as decrease in CYP7A1 mRNA level in liver at 20 mg/kg/day, IG treated for 4 weeks measured after 8 hrs of fasting post-last dose by RT-PCR analysis
[4] = biological target: T1, Bile acid receptor (Mus musculus); experiment: In vivo agonist activity at FXR of western diet/CCl4-induced NASH C57BL/6 mouse model assessed as increase in SHP mRNA level in liver at 20 mg/kg/day, IG treated for 4 weeks measured after 8 hrs of fasting post-last dose by RT-PCR analysis
[5] = biological target: T1, Bile acid receptor (Mus musculus); experiment: In vivo agonist activity at FXR of western diet/CCl4-induced NASH C57BL/6 mouse model assessed as increase in FXR mRNA level in liver at 20 mg/kg/day, IG treated for 4 weeks measured after 8 hrs of fasting post-last dose by RT-PCR analysis

Measured: Activity

CC(C)CN(c1ccc(-c2ccc(OCC(=O)O)c(F)c2)cc1)S(=O)(=O)c1c(Cl)cccc1Cl
active: all assays above

— ChEMBL document CHEMBL5625171, “Design, synthesis, and biological studies of novel sulfonamide derivatives as farnesoid X receptor agonists” (Eur J Med Chem, 2023)
